Test results published in patent publication US9499517B2, “Substituted prolines / piperidines as orexin receptor antagonists” (Eolas Therapeutics, Inc., priority 2012, dated 2016).

Protein sequences, listed by entry. Tags and fused reporters are not part of them.
UniProt O43614, whole entry: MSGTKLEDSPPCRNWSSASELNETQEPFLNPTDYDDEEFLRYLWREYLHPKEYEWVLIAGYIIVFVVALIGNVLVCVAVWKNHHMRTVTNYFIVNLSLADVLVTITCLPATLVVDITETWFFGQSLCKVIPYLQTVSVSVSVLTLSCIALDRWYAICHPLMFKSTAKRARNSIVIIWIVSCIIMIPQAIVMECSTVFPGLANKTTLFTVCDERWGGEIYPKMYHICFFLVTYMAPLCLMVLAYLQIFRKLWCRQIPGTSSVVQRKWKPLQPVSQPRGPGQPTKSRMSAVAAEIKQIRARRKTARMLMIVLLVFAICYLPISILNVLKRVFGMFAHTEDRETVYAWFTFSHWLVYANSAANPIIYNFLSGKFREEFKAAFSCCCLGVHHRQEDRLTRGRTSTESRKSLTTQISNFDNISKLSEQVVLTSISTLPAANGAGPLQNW
UniProt O43613, whole entry: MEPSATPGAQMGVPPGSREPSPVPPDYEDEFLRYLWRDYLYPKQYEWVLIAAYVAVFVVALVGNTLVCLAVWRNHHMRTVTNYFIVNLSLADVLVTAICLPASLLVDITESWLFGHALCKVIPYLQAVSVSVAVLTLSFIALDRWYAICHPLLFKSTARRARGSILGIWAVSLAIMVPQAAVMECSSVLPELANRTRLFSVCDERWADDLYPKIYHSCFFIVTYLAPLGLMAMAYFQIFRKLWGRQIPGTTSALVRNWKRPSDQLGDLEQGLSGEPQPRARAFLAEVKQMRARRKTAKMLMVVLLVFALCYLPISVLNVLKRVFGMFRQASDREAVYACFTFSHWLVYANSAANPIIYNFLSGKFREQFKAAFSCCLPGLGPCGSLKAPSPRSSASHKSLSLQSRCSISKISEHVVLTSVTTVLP

What was measured:
OX2 = biological target: T1, OX2 (Homo sapiens, UniProt O43614); assay: Orexin receptor cell-based functional assay: [Ca2+]i by FLIPR in CHO-OX2 cells, antagonism of EC90 of OXA; conditions: Table 4
T1 construct: expressed in transfected cells; host or cells: CHO (CHO-OX2, kept under G418 or Blasticidin selection)

OX1 = biological target: T2, OX1 (Homo sapiens, UniProt O43613); assay: Orexin receptor cell-based functional assay: [Ca2+]i by FLIPR in CHO-OX1 cells, antagonism of EC90 of OXA
T2 construct: expressed in transfected cells; host or cells: CHO (CHO-OX1, kept under G418 or Blasticidin selection)

| IC50 (OX2) | IC50 (OX1; Table 4) | selectivity for OX1 over OX2 (OX1; relative to Examples 112 and 114 (Table 4)) | Structure (SMILES) |
| --- | --- | --- | --- |
| 2900 nM |  |  | Cc1ccc(-c2ncccn2)c(C(=O)N2CCC[C@@H](C)[C@H]2CNc2ccc(C(F)(F)F)cn2)c1 (racemic) [Example 112, rac-((2S,3R)-3-methyl-2-(((5-(trifluoromethyl)pyridin-2-yl)amino)methyl)piperidin-1-yl)(5-methyl-2-(pyrimidin-2-yl)phenyl)methanone] |
| 270 nM | 5 nM |  | Cc1ccc(-n2nccn2)c(C(=O)N2CCC[C@@H](C)[C@H]2CNc2ccc(C(F)(F)F)cn2)c1 (racemic) [Example 114, rac-((2S,3R)-3-methyl-2-(((5-(trifluoromethyl)pyridin-2-yl)amino)methyl)piperidin-1-yl)(5-methyl-2-(2H-1,2,3-triazol-2-yl)phenyl)methanone] |
|  |  | improved selectivity for OX1 over OX2 | C[C@@H]1CCCN(C(=O)c2cc(F)ccc2-n2nccn2)[C@@H]1CNc1ncc(C(F)(F)F)cn1 [Example A207, (5-Fluoro-2-(2H-1,2,3-triazol-2-yl)phenyl)((2S,3R)-3-methyl-2-(((5-(trifluoromethyl)pyrimidin-2-yl)amino)methyl)piperidin-1-yl)methanone] |
